What was measured:
amylin receptors = target: T1, amylin receptors (Rattus norvegicus, UniProt P32214); test: Receptor binding assay (125I-rat amylin competition, rat basal forebrain membranes); settings: competition with 125I-rat amylin at 12-16 pM
T1 construct: This basal forebrain tissue, containing the nucleus accumbens and surrounding regions, was weighed and homogenized; from tissue; host or cells: rat basal forebrain (nucleus accumbens and surrounding regions) membranes
T1 sequence (P32214 25-516): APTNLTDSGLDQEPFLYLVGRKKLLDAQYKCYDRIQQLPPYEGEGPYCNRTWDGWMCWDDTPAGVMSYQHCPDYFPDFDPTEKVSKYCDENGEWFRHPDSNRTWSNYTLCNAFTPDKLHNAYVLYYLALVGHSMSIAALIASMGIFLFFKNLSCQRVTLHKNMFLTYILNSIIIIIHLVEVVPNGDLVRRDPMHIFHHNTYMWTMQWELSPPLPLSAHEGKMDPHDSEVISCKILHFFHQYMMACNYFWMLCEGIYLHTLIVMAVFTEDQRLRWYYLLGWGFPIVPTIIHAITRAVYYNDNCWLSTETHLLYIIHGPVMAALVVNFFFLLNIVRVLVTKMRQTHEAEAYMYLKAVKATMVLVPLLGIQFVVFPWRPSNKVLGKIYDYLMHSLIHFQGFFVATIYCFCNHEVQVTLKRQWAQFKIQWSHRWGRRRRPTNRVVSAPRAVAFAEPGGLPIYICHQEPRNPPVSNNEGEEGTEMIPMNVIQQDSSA
T1 sequence (Q9JJ74 27-148 partner): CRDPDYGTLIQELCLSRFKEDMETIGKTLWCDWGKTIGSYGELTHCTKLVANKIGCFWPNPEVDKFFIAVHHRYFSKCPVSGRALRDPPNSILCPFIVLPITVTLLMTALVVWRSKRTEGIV
Source text: Unlabeled peptides were obtained from BACHEM Inc. (Torrance, Calif.) and Peninsula Laboratories (Belmont, Calif.).
Male Sprague-Dawley rats (200-250) grams were sacrificed by decapitation. Brains were removed to cold phosphate-buffered saline (PBS). From the ventral surface, cuts were made rostral to the hypothalamus, bounded laterally by the olfactory tracts and extending at a 45Ε angle medially from these tracts. This basal forebrain tissue, containing the nucleus accumbens and surrounding regions, was weighed and homogenized in ice-cold 20 mM HEPES buffer (20 mM HEPES acid, pH adjusted to 7.4 with NaOH at 23ΕC). […] The final membrane pellet was resuspended in 20 mM HEPES buffer containing 0.2 mM phenylmethylsulfonyl fluoride (PMSF).
Solutions were incubated for 60 minutes at 2ΕC. […] Filters were washed immediately before filtration with 5 ml cold PBS, and immediately after filtration with 15 ml cold PBS.

Solubility = format: physicochemical
Source text: (§1) This may be due in some measure, although this is not known, to the different aggregation properties of the amylins from different species.
(§2) The agonist analogues of amylin of this invention are useful in view of their pharmacological properties. […] In addition to the description of compounds pursuant to FIG. 3, certain preferred compounds are set forth in Table I. The preferred compounds des-^1Lys-h-amylin [SEQ. ID. NO. 7], ^28Pro-h-amylin [SEQ. ID. NO. 8], ^25, 28, 29Pro-h-amylin [SEQ. ID. NO. 9], ^18Arg^25, 28Pro-h-amylin [SEQ. ID. NO. 10], and des-^1Lys^18Arg^25, 28Pro-h-amylin [SEQ. ID. NO. […] These preferred compounds include ^25Pro^26Val^28, 29Pro-h-amylin [SEQ. ID. NO. 12], ^25, 28, 29Pro-h-amylin, and ^18Arg^25, 28Pro-h-amylin.

Stability in solution = format: physicochemical
Source text: as §1, §2

| IC50 (amylin receptors) [nM] | solubility (Solubility) | stability in solution (Stability in solution) | SMILES |
| --- | --- | --- | --- |
| 0.018 | more desirable | more desirable | CC(C)C[C@H](NC(=O)[C@H](CCCNC(=N)N)NC(=O)[C@H](CCC(N)=O)NC(=O)[C@@H](NC(=O)[C@H](C)NC(=O)[C@@H]1CSSC[C@H](NC(=O)[C@@H](N)CCCCN)C(=O)N[C@@H](CC(N)=O)C(=O)N[C@@H]([C@@H](C)O)C(=O)N[C@@H](C)C(=O)N[C@@H]([C@@H](C)O)C(=O)N1)[C@@H](C)O)C(=O)N[C@@H](C)C(=O)N[C@@H](CC(N)=O)C(=O)N[C@@H](Cc1ccccc1)C(=O)N[C@@H](CC(C)C)C(=O)N[C@H](C(=O)N[C@@H](Cc1c[nH]cn1)C(=O)N[C@@H](CO)C(=O)N[C@@H](CO)C(=O)N[C@@H](CC(N)=O)C(=O)N[C@@H](CC(N)=O)C(=O)N[C@@H](Cc1ccccc1)C(=O)NCC(=O)N1CCC[C@H]1C(=O)N[C@H](C(=O)N[C@@H](CC(C)C)C(=O)N1CCC[C@H]1C(=O)N1CCC[C@H]1C(=O)N[C@H](C(=O)N[C@@H](CC(N)=O)C(=O)N[C@H](C(=O)NCC(=O)N[C@@H](CO)C(=O)N[C@@H](CC(N)=O)C(=O)N[C@H](C(=O)N[C@@H](Cc1ccc(O)cc1)C(N)=O)[C@@H](C)O)C(C)C)[C@@H](C)O)C(C)C)C(C)C [Example 2, ^25Pro^26Val^28, 29Pro-h-Amylin] |
| 0.032 | more desirable | more desirable | CC[C@H](C)[C@H](NC(=O)[C@@H]1CCCN1C(=O)CNC(=O)[C@H](Cc1ccccc1)NC(=O)[C@H](CC(N)=O)NC(=O)[C@H](CC(N)=O)NC(=O)[C@H](CO)NC(=O)[C@H](CO)NC(=O)[C@H](CCCNC(=N)N)NC(=O)[C@@H](NC(=O)[C@H](CC(C)C)NC(=O)[C@H](Cc1ccccc1)NC(=O)[C@H](CC(N)=O)NC(=O)[C@H](C)NC(=O)[C@H](CC(C)C)NC(=O)[C@H](CCCNC(=N)N)NC(=O)[C@H](CCC(N)=O)NC(=O)[C@@H](NC(=O)[C@H](C)NC(=O)[C@@H]1CSSC[C@H](NC(=O)[C@@H](N)CCCCN)C(=O)N[C@@H](CC(N)=O)C(=O)N[C@@H]([C@@H](C)O)C(=O)N[C@@H](C)C(=O)N[C@@H]([C@@H](C)O)C(=O)N1)[C@@H](C)O)C(C)C)C(=O)N[C@@H](CC(C)C)C(=O)N1CCC[C@H]1C(=O)N[C@@H](CO)C(=O)N[C@H](C(=O)N[C@@H](CC(N)=O)C(=O)N[C@H](C(=O)NCC(=O)N[C@@H](CO)C(=O)N[C@@H](CC(N)=O)C(=O)N[C@H](C(=O)N[C@@H](Cc1ccc(O)cc1)C(N)=O)[C@@H](C)O)C(C)C)[C@@H](C)O [Example 10, ^18Arg^25, 28Pro-h-Amylin] |
| 0.01 | more desirable | more desirable | CC[C@H](C)[C@H](NC(=O)[C@@H]1CCCN1C(=O)CNC(=O)[C@H](Cc1ccccc1)NC(=O)[C@H](CC(N)=O)NC(=O)[C@H](CC(N)=O)NC(=O)[C@H](CO)NC(=O)[C@H](CO)NC(=O)[C@H](Cc1c[nH]cn1)NC(=O)[C@@H](NC(=O)[C@H](CC(C)C)NC(=O)[C@H](Cc1ccccc1)NC(=O)[C@H](CC(N)=O)NC(=O)[C@H](C)NC(=O)[C@H](CC(C)C)NC(=O)[C@H](CCCNC(=N)N)NC(=O)[C@H](CCC(N)=O)NC(=O)[C@@H](NC(=O)[C@H](C)NC(=O)[C@@H]1CSSC[C@H](NC(=O)[C@@H](N)CCCCN)C(=O)N[C@@H](CC(N)=O)C(=O)N[C@@H]([C@@H](C)O)C(=O)N[C@@H](C)C(=O)N[C@@H]([C@@H](C)O)C(=O)N1)[C@@H](C)O)C(C)C)C(=O)N[C@@H](CC(C)C)C(=O)N1CCC[C@H]1C(=O)N1CCC[C@H]1C(=O)N[C@H](C(=O)N[C@@H](CC(N)=O)C(=O)N[C@H](C(=O)NCC(=O)N[C@@H](CO)C(=O)N[C@@H](CC(N)=O)C(=O)N[C@H](C(=O)N[C@@H](Cc1ccc(O)cc1)C(N)=O)[C@@H](C)O)C(C)C)[C@@H](C)O [Example 14, ^25, 28, 29Pro-h-Amylin] |

Source: patent US6610824B2 (Amylin Pharmaceuticals, Inc., priority 1991, dated 2003)
